What is called EC50 is the concentration that produces a half-maximal response. The term Ki denotes a dissociation constant, usually derived from enzyme kinetics or from competition with a known ligand. Higher therefore signals weaker binding. Usually ED50 stands for the dose that gives a 50% effect, or the effect in half of the subjects.

Here are results for eleven compounds from ChEMBL document CHEMBL5137076, “SLL-627 Is a Highly Selective and Potent κ Opioid Receptor (KOR) Agonist with an Unexpected Nonreduction in Locomotor Activity” (2022).

In experiment [1] the target is T1, Mu-type opioid receptor (Rattus norvegicus, UniProt P33535). The experiment is described as follows: Agonist activity at rat MOR expressed in CHO cell membranes after 1 hr by [35S]GTPgammaS binding assay.
For experiment [2], the target named is T2, Delta-type opioid receptor (Rattus norvegicus, UniProt P33533). Description: Agonist activity at rat DOR expressed in CHO cell membranes after 1 hr by [35S]GTPgammaS binding assay. For orientation: GTPγS is a poorly hydrolysed GTP analogue; its binding reports G protein activation.
The target in experiment [3] is T1, Mu-type opioid receptor. Description: Displacement of [3H]DAMGO from rat MOR expressed in CHO cell membranes incubated for 30 mins by liquid scintillation counting method. For orientation: Displacement assays read how much labelled ligand stays bound in the presence of the test substance.
Experiment [4] addresses T2, Delta-type opioid receptor. The experiment is described as follows: Displacement of [3H]DPDPE from rat DOR expressed in CHO cell membranes incubated for 30 mins by liquid scintillation counting method.
The target in experiment [5] is T3, Kappa-type opioid receptor (Homo sapiens, UniProt P41145). Description: Displacement of [3H]U69593 from human KOR expressed in CHO cell membranes incubated for 30 mins by liquid scintillation counting method.
Experiment [6] addresses T3, Kappa-type opioid receptor. Description: Agonist activity at human KOR expressed in CHO cell membranes after 1 hr by [35S]GTPgammaS binding assay.
Experiment [7] deals with Mus musculus. Description: Antinociceptive activity in ip dosed Kunming mouse assessed as reduction in nociceptive response after 4 hrs by hot plate test. Background: In hot-plate and tail-flick tests a longer latency is read as antinociception.
Experiment [8] concerns Mus musculus. Description: Antinociceptive activity in ip dosed Kunming mouse assessed as reduction in nociceptive response after 4 hrs by abdominal constriction test.

SMILES strings stand for the structures. Some results are limits rather than exact numbers.

For the compound `COc1ccc2c3c1O[C@H]1[C@@]4(OC)CC[C@@]5(C[C@@]4(C)C=O)[C@@H](C2)N(CC2CC2)CC[C@]315`, the EC50 was found to be 99.4 nM in experiment [1] and 43.8 nM in experiment [2]. For the same compound, the inhibitory constant (Ki) amounted to 30.3 nM in experiment [3], 1120 nM in experiment [4] and 265 nM in experiment [5].

`COc1ccc2c3c1O[C@H]1[C@@]4(OC)CC[C@@]5(C[C@@]4(C)C(=O)c4cc(C)cc(C)c4)[C@@H](C2)N(CC2CC2)CC[C@]315`: the inhibitory constant (Ki) in experiment [3] came out at 99.4 nM; in experiment [4], 259 nM; in experiment [5] it was 79.8 nM.

As for `COc1ccc2c3c1O[C@H]1[C@@]4(OC)CC[C@@]5(C[C@@]4(C)C(=O)c4ccccc4)[C@@H](C2)N(CC2CC2)CC[C@]315`, the EC50 in experiment [1] was determined as 1200 nM; in experiment [6], 287 nM. Moreover, the Ki is 236 nM in experiment [3], above 10000 nM in experiment [4] and 40.4 nM in experiment [5].

In the case of `COc1ccc2c3c1O[C@H]1[C@@]4(OC)CC[C@@]5(C[C@@]4(C)[C@H](O)c4ccc(Cl)c(Cl)c4)[C@@H](C2)N(CC2CC2)CC[C@]315`, the values for the Ki in experiment [3], in experiment [4] and in experiment [5] were 620 nM, 93.8 nM and 2410 nM, respectively.

As to `COc1ccc2c3c1O[C@H]1[C@@]4(OC)CC[C@@]5(C[C@@]4(C)C(=O)c4ccc6ccccc6c4)[C@@H](C2)N(CC2CC2)CC[C@]315`, the Ki in experiment [3] is 107 nM; in experiment [4] it was 338 nM; in experiment [5], 86.2 nM.

Regarding `COc1ccc2c3c1O[C@H]1[C@@]4(OC)CC[C@@]5(C[C@@]4(C)[C@H](O)c4ccc(C(C)C)cc4)[C@@H](C2)N(CC2CC2)CC[C@]315`, the Ki in experiment [3] came out at 54.3 nM; in experiment [4], 38.4 nM; in experiment [5], 175 nM.

With `COc1ccc2c3c1O[C@H]1[C@@]4(OC)CC[C@@]5(C[C@@]4(C)C(=O)c4ccc(-c6ccccc6)cc4)[C@@H](C2)N(CC2CC2)CC[C@]315`, the Ki was 728 nM in experiment [3], above 10000 nM in experiment [4] and 463 nM in experiment [5].

For `COc1ccc2c3c1O[C@H]1[C@@]4(OC)CC[C@@]5(C[C@@]4(C)[C@H](O)c4ccccc4)[C@@H](C2)N(CC2CC2)CC[C@]315`, the EC50 in experiment [1] turned out to be 553 nM; in experiment [2], 886 nM; in experiment [6] it was 0.015 nM. For the same compound, the ED50 stood at 0.1 mg/kg in experiment [7] and 0.4 mg/kg in experiment [8]. Also, the ED90 in experiment [7] was 1.7 mg/kg. In addition, the inhibition constant (Ki) in experiment [3] is 961 nM; in experiment [4] it was above 5000 nM; in experiment [5], 3.3 nM.

As to `COc1ccc2c3c1O[C@H]1[C@@]4(OC)CC[C@@]5(C[C@@]4(C)C(=O)c4ccc(C)cc4)[C@@H](C2)N(CC2CC2)CC[C@]315`, the values for the Ki in experiment [3], in experiment [4] and in experiment [5] were 107 nM, above 10000 nM and 83 nM, respectively.

For `COc1ccc2c3c1O[C@H]1[C@@]4(OC)CC[C@@]5(C[C@@]4(C)C(=O)c4ccc(C(C)C)cc4)[C@@H](C2)N(CC2CC2)CC[C@]315`, the results for the Ki in experiment [3], in experiment [4] and in experiment [5] were 731 nM, 65 nM and 32.9 nM, respectively.

`COc1ccc(C(=O)[C@]2(C)C[C@@]34CC[C@]2(OC)[C@@H]2Oc5c(OC)ccc6c5[C@@]23CCN(CC2CC2)[C@@H]4C6)cc1`: the Ki is 78.4 nM in experiment [3], 1180 nM in experiment [4] and 147 nM in experiment [5].
